{"source": "patent US20150118229A1", "about": "“JAK1 SELECTIVE INHIBITOR AND USES THEREOF” (ABBVIE INC., priority 2013, published 2015)", "key": {"[1]": {"experiment": "Human PK, multiple ascending dose Study M13-845 Substudy 1", "details": "in vivo, oral"}, "clinical": {"experiment": "clinical", "details": "human, plasma, oral"}}}
{"smiles": "CC[C@@H]1CN(C(=O)NCC(F)(F)F)C[C@@H]1c1cnc2cnc3[nH]ccc3n12", "note": "[Compound 1, (3S,4R)-3-ethyl-4-(3H-imidazo[1,2-a]pyrrolo[2,3-e]pyrazin-8-yl)-N-(2,2,2-trifluoroethyl)pyrrolidine-1-carboxamide]", "values": [{"measurement": "half-life", "setting": "[1]; 12 mg BID, Day 14, harmonic mean (pseudo % CV), Western subjects, read-out: t1/2 (converted)", "value": 7.59, "unit": "h"}, {"measurement": "half-life", "setting": "[1]; 24 mg BID, Day 14, harmonic mean (pseudo % CV), Western subjects, read-out: t1/2 (converted)", "value": 8.01, "unit": "h"}, {"measurement": "half-life", "setting": "[1]; following the last dose on Day 14, read-out: t½ of elimination phase", "value": "8 to 16", "unit": "h"}, {"measurement": "half-life", "setting": "clinical; 3 mg, t1/2, Japanese, single dose 3 mg, harmonic mean (pseudo % CV), not a robust estimate", "value": 6.1, "unit": "h"}, {"measurement": "half-life", "setting": "clinical; 18 mg, t1/2, Chinese, 18 mg BID, Day 14, harmonic mean (pseudo % CV)", "value": 6.88, "unit": "h"}, {"measurement": "half-life", "setting": "clinical; 24 mg, t1/2, Japanese, single dose 24 mg, harmonic mean (pseudo % CV)", "value": 14, "unit": "h"}]}
